For data set [1] the following is noted: Crystal; DTA.
A short description of data set [2]: Molar enthalpy of transition or fusion. To be noted: Crystal; DSC.

SMILES strings stand for the structures. Numbers after ± are expanded uncertainties.

On to `Nc1ccc(S(=O)(=O)Nc2ccc(Cl)c(Cl)c2)cc1` [4-amino-N-(3,4-dichlorophenyl)benzenesulfonamide], for which the Normal melting temperature in data set [1] came to 224.8 ± 0.5 °C. Further, the “Molar enthalpy of transition or fusion” value in data set [2] came out at 7.36 ± 0.287 kcal/mol.
Regarding `Nc1ccc(S(=O)(=O)Nc2ccc(I)cc2)cc1` [4-amino-N-(4-iodophenyl)benzenesulfonamide], the Normal melting temperature in data set [1] is 195.6 ± 0.5 °C. In addition, in data set [2], the “Molar enthalpy of transition or fusion” value was 8.7 ± 0.287 kcal/mol.
In the case of `O=S(=O)(Nc1cccnc1Cl)c1ccccc1` [N-(2-chloro-3-pyridinyl)benzenesulfonamide], the Normal melting temperature in data set [1] turned out to be 153.1 ± 0.5 °C. Moreover, in data set [2], the “Molar enthalpy of transition or fusion” value turned out to be 8.99 ± 0.287 kcal/mol.
Consider `CCOc1ccc(NS(=O)(=O)c2ccc([N+](=O)[O-])cc2)cc1` [N-(4-ethoxyphenyl)-4-nitrobenzenesulfonamide], for which, in data set [1], the Normal melting temperature came to 172.1 ± 0.5 °C. Moreover, the “Molar enthalpy of transition or fusion” value in data set [2] worked out at 9.3 ± 0.311 kcal/mol.

These data come from the NIST ThermoML archive (doi:10.1021/je500918t).
